Data on 25 molecules can be found in PubChem BioAssay AID504894 (National Center for Advancing Translational Sciences (NCATS), 2011).

The entries are a selection whose mix differs from that of the whole data set. Some results for these compounds are left out of this collection, so the calls shown say nothing about other tests. Calls of active or inactive are those of the source. Calls come from the whole dose curve; as a rule, active = well fitted activation curve with a large enough effect; inconclusive = small, poorly fitted or top-dose-only effect, or another doubt; inactive = no such curve, though single readings can be large or run the other way.

The assay is described as follows: Activators of T cell receptors: qHTS campaign. Note: % of control where 0% means no effect. Conditions: primary human leukocytes, anti-CD3, IL-2 HTRF, 48 h; at 9.22 µM unless noted. An excerpt: Normally activation of naive T cells requires two signals. 1. A signal through the T cell receptor (TCR) which provides antigen specificity to the response. 2. Signals through co-stimulatory molecules, which are necessary for proliferation, survival and cytokine production. In the absence of co-stimulatory signals T cells are not effectively activated, and may even be rendered anergic or unresponsive to subsequent signaling. This lack of costimulation has been shown in multiple model systems to be a major factor in the limited strength and effectiveness of anti-tumor T cell responses. The goal of this project is to identify small molecule compounds that will stimulate T cell activation in the presence of TCR signaling but in the absence of co-stimulatory signals, thereby allowing activation of naive T cells in the absence of co-stimulation. Identification of such compounds would have clear experimental and clinical applications in instances where desirable antigen-specific immune responses are not generated due to a lack of co-stimulation, for example in the generation of anti-tumor responses. In collaboration between the National Cancer Institute and NIH Chemical Genomics Center, a high-throughput amenable screen was developed to discover small molecules that co-stimulate and activate human T cell receptors. The screen will be carried out using a novel homogeneous time resolved fluorescence energy transfer (HTRF) assay to measure production of the cytokine IL-2 by activated T cells and will be tested against the NIH Molecular Libraries Small Molecule Repository (MLSMR). NIH Chemical Genomics Center [NCGC] NIH Molecular Libraries Probe Centers Network [MLPCN] MLPCN Grant: MH090820-01 Assay Submitter (PI): Richard Hodes, National Cancer Institute, NIH
Primary human leukocytes are incubated with a-CD3 beads and compounds for 48 hr. The amount of secreted IL-2 is then assayed with a HTRF IL-2 kit. The presence of IL-2 cytokine captures the detection reagents and brings the a-IL-2-K and a-IL-2-d2 into close proximity. Upon excitation with 320nm light, the europium cryptate is capable of transferring energy to acceptor molecules within close proximity, resulting in acceptor molecule emission at 665nm.
`COc1ccc(Br)c(C(=O)NCC2(N3CCCCC3)CCCCC2)c1`: the activation of IL-2 secretion was inactive: -1.95%.

On to `CN(C)c1cccc(C(=O)NCC2(N(C)C)CCCCC2)c1`, for which the activation of IL-2 secretion is inactive: 0.125%.

Regarding `O=C(OCCN1CCCC1)C(O)(c1ccccc1)c1ccccc1`, the activation of IL-2 secretion is inactive: -7%.

Regarding `CC(C)Oc1ccc(C(=O)NCC2(N(C)C)CCCCC2)cc1`, the activation of IL-2 secretion is inactive: 2.44%.

Regarding `O=C(OC1CN2CCC1CC2)C(CO)(c1ccccc1)c1ccccc1` (stereo not given), the activation of IL-2 secretion was inactive: -4.05%.

Regarding `COc1ccc(Cl)cc1C(=O)NCC1(N(C)C)CCCCC1`, the activation of IL-2 secretion is inactive: -7.16%.

With `COc1cccc(C(=O)NCC2(N3CCCCC3)CCCCC2)c1`, the activation of IL-2 secretion was inactive: 1.42%.

Take `O=C(NCC1(N2CCCCC2)CCCCC1)c1cccc(Cl)c1`: the activation of IL-2 secretion is inactive: -1.19%.

For the molecule `CN(C)C1(CNC(=O)c2ccc(Br)cc2)CCCCC1`, the activation of IL-2 secretion was inactive: 2.65%.

As for `COc1cc(C(=O)NCC2(N(C)C)CCCCC2)c([N+](=O)[O-])cc1OC`, the activation of IL-2 secretion was inactive: -2.79%.

Consider `O=C(NCC1(N2CCCCC2)CCCCC1)c1cc(F)c(F)cc1Cl`, for which the activation of IL-2 secretion is inactive: 3.3%.

In the case of `C=CCN1CCN(CCOC(=O)C(O)(c2ccccc2)c2ccccc2)CC1`, the activation of IL-2 secretion is inactive: 7.72%.

Turning to `O=C(NCC1(N2CCCCC2)CCCCC1)c1cccc(Br)c1`, the activation of IL-2 secretion was inactive: -3.85%.

`CCN1CCCC(OC(=O)C2(O)c3ccccc3C=Cc3ccccc32)C1` (stereo not given): the activation of IL-2 secretion was inactive: -4.57% [at 46.1 µM].

Turning to `Cc1cc(C(=O)NCC2(N3CCCCC3)CCCCC2)ccc1[N+](=O)[O-]`, the activation of IL-2 secretion is inactive: 1.23%.

With `COc1ccc(C(=O)NCC2(N(C)C)CCCCC2)cc1`, the activation of IL-2 secretion was inactive: -4.04%.

With `CN(C)c1ccc(C(=O)NCC2(N(C)C)CCCCC2)cc1`, the activation of IL-2 secretion is inactive: 0.724%.

As to `CN(C)C1CCCC1OC(=O)C(O)(c1ccccc1)c1ccccc1` (stereo not given), the activation of IL-2 secretion was inactive: -7.59% [at 46.1 µM].

In the case of `Cc1ccccc1C(=O)NCC1(N2CCCCC2)CCCCC1`, the activation of IL-2 secretion was inactive: -5.52%.

With `CC(C)N1C(=O)CC2(CCN(CCOC(=O)C(O)(c3ccccc3)c3ccccc3)CC2)C1=O`, the activation of IL-2 secretion is inactive: -1.12%.

With `COc1cc(SC)ccc1C(=O)NCC1(N(C)C)CCCCC1`, the activation of IL-2 secretion is inactive: 4.05%.

As for `CCN(CC)CC(C)C(C)OC(=O)C(O)(c1ccccc1)c1ccccc1` (stereo not given), the activation of IL-2 secretion is inactive: -2.57%.

As for `Cc1ccc(C(=O)NCC2(N3CCCCC3)CCCCC2)cc1`, the activation of IL-2 secretion is inactive: -3.58%.

As for `O=C(NCC1(N2CCCCC2)CCCCC1)c1cc([N+](=O)[O-])ccc1Cl`, the activation of IL-2 secretion was inactive: 6.77%.

Take `CN1[C@@H]2CC[C@H]1CC(OC(=O)C(O)(c1ccccc1)c1ccccc1)C2` (stereo not given in full): the activation of IL-2 secretion was inactive: -0.41%.
